Read-outs that look alike come from different tables or passages of the source.
Test system: PSMA^+ PC3 PIP and PSMA^− PC3 flu tumors

O=C(O)CCC(NC(=O)NC(CCCCNC(=O)c1ccc([18F])nc1)C(=O)O)C(=O)O (stereo not drawn) [[^18F]DCFPyL, 2-(3-{1-carboxy-5-[(6-[^18F]fluoropyridine-3-carbonyl)-amino]-pentyl}-ureido)-pentanedioic acid, reference compound]
Biodistribution, bladder (empty) (30 min post-injection): 20.28 ± 12.32 % ID/g | Biodistribution, bone (30 min post-injection): 1.00 ± 0.51 % ID/g | Biodistribution, kidney (30 min post-injection): 123.69±8.05 % ID/g | Biodistribution, lung (30 min post-injection): 3.00 ± 0.34 % ID/g | Biodistribution, pancreas (30 min post-injection): 1.07 ± 0.12 % ID/g | Biodistribution, stomach (30 min post-injection): 0.90 ± 0.14 % ID/g | Biodistribution, bladder (empty) (60 min post-injection): 11.60 ± 5.41 % ID/g | Biodistribution, kidney (60 min post-injection): 128.13 ± 15.02 % ID/g | Biodistribution, stomach (60 min post-injection): 0.50 ± 0.10 % ID/g | Biodistribution, large intestine (120 min post-injection): 0.52 ± 0.35 % ID/g | Biodistribution, muscle (120 min post-injection): 0.08 ± 0.02 % ID/g | Biodistribution, fat (240 min post-injection): 0.10 ± 0.05 % ID/g | Biodistribution, heart (240 min post-injection): 0.06 ± 0.01 % ID/g | Biodistribution, muscle (240 min post-injection): 0.07 ± 0.04 % ID/g | Biodistribution, pancreas (240 min post-injection): 0.09 ± 0.02 % ID/g | Biodistribution, stomach (240 min post-injection): 0.09 ± 0.03 % ID/g

O=C(O)CC[C@H](NC(=O)N[C@@H](CCCCNC(=O)CCCCCCC(=O)N[C@@H](CCCCNC(=O)CCc1cn(CC[18F])nn1)C(=O)O)C(=O)O)C(=O)O [[^18F]YC-71]
Biodistribution, PSMA+ PC3 PIP tumor uptake (30 min post-injection): 38.35±3.06 % ID/g | Biodistribution, PSMA− PC3 flu tumor uptake (30 min post-injection): 0.53 ± 0.13 % ID/g | Biodistribution, bladder (empty) (30 min post-injection): 11.68 ± 3.49 % ID/g | Biodistribution, blood (30 min post-injection): 0.84 ± 0.15 % ID/g | Biodistribution, bone (30 min post-injection): 0.33 ± 0.15 % ID/g | Biodistribution, fat (30 min post-injection): 0.42 ± 0.07 % ID/g | Biodistribution, heart (30 min post-injection): 0.35 ± 0.07 % ID/g | Biodistribution, kidney (30 min post-injection): 70.86 ± 7.48 % ID/g | Biodistribution, large intestine (30 min post-injection): 0.65 ± 0.16 % ID/g | Biodistribution, liver (30 min post-injection): 18.89 ± 1.36 % ID/g | Biodistribution, lung (30 min post-injection): 1.55 ± 0.25 % ID/g | Biodistribution, muscle (30 min post-injection): 0.24 ± 0.05 % ID/g | Biodistribution, pancreas (30 min post-injection): 0.62 ± 0.09 % ID/g | Biodistribution, small intestine (30 min post-injection): 0.38 ± 0.06 % ID/g | Biodistribution, spleen (30 min post-injection): 4.92 ± 0.54 % ID/g | Biodistribution, stomach (30 min post-injection): 0.52 ± 0.09 % ID/g | PIP/flu uptake ratio (30 min post-injection): 72 | Biodistribution, PSMA+ PC3 PIP tumor uptake (60 min post-injection): 41.66±8.16 % ID/g | Biodistribution, PSMA− PC3 flu tumor uptake (60 min post-injection): 0.28 ± 0.02 % ID/g | Biodistribution, bladder (empty) (60 min post-injection): 1.59 ± 1.09 % ID/g | Biodistribution, blood (60 min post-injection): 0.24 ± 0.02 % ID/g | Biodistribution, bone (60 min post-injection): 0.15 ± 0.01 % ID/g | Biodistribution, fat (60 min post-injection): 0.32 ± 0.07 % ID/g | Biodistribution, heart (60 min post-injection): 0.17 ± 0.04 % ID/g | Biodistribution, kidney (60 min post-injection): 70.63 ± 19.18 % ID/g | Biodistribution, large intestine (60 min post-injection): 0.27 ± 0.03 % ID/g | Biodistribution, liver (60 min post-injection): 21.52 ± 3.82 % ID/g | Biodistribution, lung (60 min post-injection): 0.82 ± 0.16 % ID/g | Biodistribution, muscle (60 min post-injection): 0.09 ± 0.00 % ID/g | Biodistribution, pancreas (60 min post-injection): 0.33 ± 0.09 % ID/g | Biodistribution, small intestine (60 min post-injection): 0.20 ± 0.09 % ID/g | Biodistribution, spleen (60 min post-injection): 3.54 ± 0.89 % ID/g | Biodistribution, stomach (60 min post-injection): 0.32 ± 0.08 % ID/g | PIP/flu uptake ratio (60 min post-injection): 146 | Biodistribution, PSMA+ PC3 PIP tumor uptake (120 min post-injection): 39.81±3.65 % ID/g | Biodistribution, PSMA− PC3 flu tumor uptake (120 min post-injection): 0.12 ± 0.03 % ID/g | Biodistribution, bladder (empty) (120 min post-injection): 6.34 ± 6.91 % ID/g | Biodistribution, blood (120 min post-injection): 0.08 ± 0.01 % ID/g | Biodistribution, bone (120 min post-injection): 0.07 ± 0.02 % ID/g | Biodistribution, heart (120 min post-injection): 0.07 ± 0.01 % ID/g | Biodistribution, kidney (120 min post-injection): 34.35 ± 6.99 % ID/g | Biodistribution, large intestine (120 min post-injection): 0.12 ± 0.06 % ID/g | Biodistribution, liver (120 min post-injection): 19.75 ± 0.93 % ID/g | Biodistribution, lung (120 min post-injection): 0.31 ± 0.03 % ID/g | Biodistribution, muscle (120 min post-injection): 0.04 ± 0.01 % ID/g | Biodistribution, pancreas (120 min post-injection): 0.17 ± 0.06 % ID/g | Biodistribution, small intestine (120 min post-injection): 0.21 ± 0.04 % ID/g | Biodistribution, spleen (120 min post-injection): 0.91 ± 0.53 % ID/g | Biodistribution, stomach (120 min post-injection): 0.13 ± 0.06 % ID/g | PIP/flu uptake ratio (120 min post-injection): 323 | PSMA− PC3 flu tumor uptake (in words) (all time points): low

O=C(O)CC[C@H](NC(=O)N[C@@H](CCCCNC(=O)CCc1cn(CC[18F])nn1)C(=O)O)C(=O)O [[^18F]YC-88, 2-[3-(1-carboxy-5-{3-[1-(2-[^18F]fluoroethyl)-1H-1,2,3-triazol-yl]propanamido}pentyl)ureido]-pentanedioic acid]
Salivary gland uptake compared to [^18F]DCFPyL (in words) (30 min and 1 h post-injection): significantly less | Biodistribution, bone (30 min post-injection): 0.40 ± 0.16 % ID/g | PIP/flu uptake ratio (30 min post-injection): 70 | PIP/kidney (tumor-to-kidney) uptake ratio (30 min post-injection): 0.9 | Biodistribution, heart (120 min post-injection): 0.07 ± 0.02 % ID/g | Biodistribution, muscle (120 min post-injection): 0.10 ± 0.03 % ID/g | PIP/kidney (tumor-to-kidney) uptake ratio (120 min post-injection): 4 | Biodistribution, PSMA− PC3 flu tumor uptake (240 min post-injection): 0.07 ± 0.01 % ID/g | Biodistribution, fat (240 min post-injection): 0.10 ± 0.04 % ID/g | Biodistribution, heart (240 min post-injection): 0.04 ± 0.01 % ID/g | Biodistribution, muscle (240 min post-injection): 0.06 ± 0.03 % ID/g | Biodistribution, pancreas (240 min post-injection): 0.07 ± 0.02 % ID/g | Biodistribution, stomach (240 min post-injection): 0.06 ± 0.02 % ID/g | Bone uptake (all time points): < 1 % ID/g | Kidney, liver and spleen uptake compared to [^18F]DCFPyL (in words) (all time points): significantly lower | PSMA− PC3 flu tumor uptake (in words) (all time points): low | Nontarget tissue uptake (in words) (at or after 30 min post-injection): minimal nontarget tissue uptake

Reference: US11078166B2, “Triazole conjugated ureas, thioureas, carbamates, and reversed carbamates for PSMA-targeted imaging agents and uses thereof” (THE JOHNS HOPKINS UNIVERSITY, priority 2015, dated 2021)
